In US20260216354A1, “ANTI-CMET ANTIBODY, ANTIBODY-DRUG CONJUGATE, AND PREPARATION METHOD THEREFOR AND USE THEREOF” (MEDILINK THERAPEUTICS (SUZHOU) CO., LTD., priority 2022, published 2026):

Legend:
h.cMet-ECD-His = target: T1, h.cMet-ECD-His (Homo sapiens, UniProt P08581); experiment: ELISA protein affinity of cMET antibodies before and after conjugating into ADCs; format: binding
T1 construct: a human cMet ectodomain recombinant protein (Human HGF R/c-MET Protein, His Tag); purchased Acrobiosystems Co., Ltd. / ACRO Biosystems MET-H5227
T1 sequence (P08581 25-932 limits assumed): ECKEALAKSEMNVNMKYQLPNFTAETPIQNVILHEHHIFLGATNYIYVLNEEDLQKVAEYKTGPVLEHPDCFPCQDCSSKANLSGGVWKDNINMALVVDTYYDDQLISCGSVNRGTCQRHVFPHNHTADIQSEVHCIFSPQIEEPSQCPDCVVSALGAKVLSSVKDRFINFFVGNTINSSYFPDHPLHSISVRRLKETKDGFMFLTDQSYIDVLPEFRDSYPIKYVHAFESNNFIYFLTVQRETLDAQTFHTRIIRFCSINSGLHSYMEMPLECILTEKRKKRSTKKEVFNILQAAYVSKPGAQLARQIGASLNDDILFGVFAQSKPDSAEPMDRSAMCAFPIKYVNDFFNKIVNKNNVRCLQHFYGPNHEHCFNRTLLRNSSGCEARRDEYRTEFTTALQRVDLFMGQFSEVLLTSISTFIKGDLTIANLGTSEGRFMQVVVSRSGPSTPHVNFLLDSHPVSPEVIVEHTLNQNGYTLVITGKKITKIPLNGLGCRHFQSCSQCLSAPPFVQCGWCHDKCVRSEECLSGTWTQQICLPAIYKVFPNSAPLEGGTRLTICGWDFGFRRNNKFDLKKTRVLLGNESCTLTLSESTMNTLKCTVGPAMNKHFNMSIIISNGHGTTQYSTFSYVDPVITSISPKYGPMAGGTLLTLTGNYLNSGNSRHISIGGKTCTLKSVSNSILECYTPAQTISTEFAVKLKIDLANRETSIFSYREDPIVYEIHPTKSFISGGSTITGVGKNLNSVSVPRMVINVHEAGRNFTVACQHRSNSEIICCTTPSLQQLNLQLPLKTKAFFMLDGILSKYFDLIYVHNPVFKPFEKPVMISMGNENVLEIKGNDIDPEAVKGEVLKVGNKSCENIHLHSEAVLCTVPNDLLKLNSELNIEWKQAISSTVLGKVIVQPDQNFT

[1] = system: cynoMet (cyno.cMet-ECD-His); experiment: ELISA affinity of humanized antibodies to cyno Met; format: binding; conditions: cyno.cMet-ECD-His captured
Rat-cMet-hFc = target: T2, Rat-cMet-hFc (Rattus norvegicus, UniProt P97523); experiment: ELISA cross-detection with rat cMet; format: binding; conditions: FIG. 1
T2 construct: a rat cMet ectodomain recombinant protein (Rat-cMet-hFc, c-MET Protein, Rat, Recombinant (hFc Tag)); purchased Sino Biological, Inc. 80004-R02H
T2 sequence (P97523 25-935 limits assumed): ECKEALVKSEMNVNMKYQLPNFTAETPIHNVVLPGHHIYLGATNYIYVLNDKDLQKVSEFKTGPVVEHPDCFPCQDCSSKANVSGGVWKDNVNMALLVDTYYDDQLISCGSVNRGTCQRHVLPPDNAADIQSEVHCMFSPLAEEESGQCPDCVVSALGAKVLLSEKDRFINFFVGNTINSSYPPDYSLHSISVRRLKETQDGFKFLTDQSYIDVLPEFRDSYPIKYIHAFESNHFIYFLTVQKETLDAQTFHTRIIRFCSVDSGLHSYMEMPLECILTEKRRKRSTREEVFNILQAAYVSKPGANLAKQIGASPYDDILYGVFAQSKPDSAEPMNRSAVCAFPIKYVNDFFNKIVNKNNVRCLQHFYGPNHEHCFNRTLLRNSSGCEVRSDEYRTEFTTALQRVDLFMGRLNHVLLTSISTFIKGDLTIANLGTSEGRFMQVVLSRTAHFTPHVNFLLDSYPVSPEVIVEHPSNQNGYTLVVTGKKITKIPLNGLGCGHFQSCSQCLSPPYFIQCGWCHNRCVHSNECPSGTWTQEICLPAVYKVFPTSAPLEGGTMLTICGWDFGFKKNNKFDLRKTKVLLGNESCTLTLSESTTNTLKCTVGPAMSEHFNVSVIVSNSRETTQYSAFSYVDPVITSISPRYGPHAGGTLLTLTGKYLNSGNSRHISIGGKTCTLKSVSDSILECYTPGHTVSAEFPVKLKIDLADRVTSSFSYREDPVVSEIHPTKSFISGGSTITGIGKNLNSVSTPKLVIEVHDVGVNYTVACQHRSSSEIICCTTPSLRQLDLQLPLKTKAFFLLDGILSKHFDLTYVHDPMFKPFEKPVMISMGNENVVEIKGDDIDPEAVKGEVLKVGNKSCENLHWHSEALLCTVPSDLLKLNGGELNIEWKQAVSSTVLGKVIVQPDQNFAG

MKN45 cells [2] = experiment: Flow affinity of humanized antibodies to MKN45 cells; format: binding, human; conditions: flow cytometry
MKN45 cells [3] = experiment: Endocytic activity on MKN45 cells; format: cell-based, human; conditions: 10 μg/mL, 37° C.

B1: 55A10G6-Hz: humanized anti-c-Met antibody, IgG1/Kappa; HC SEQ ID NO: 58, LC SEQ ID NO: 59 (antibody)
heavy: QIQLVQSGAEVKKPGASVKVSCKASGYTFTDYYLNWVRQAPGQGLEWMGWIFPGSGNTKYSQKFQGRVTLTVDTSASTAYMELSSLRSEDTAVYYCAGGDYGGFTYWGQGTLVTVSSASTKGPSVFPLAPSSKSTSGGTAALGCLVKDYFPEPVTVSWNSGALTSGVHTFPAVLQSSGLYSLSSVVTVPSSSLGTQTYICNVNHKPSNTKVDKKV[human IgG1 Fc omitted here]
light: DIQMTQSPSSLSASVGDRVTITCGASENIYGALNWYQQKPGKAPKLLIYGATNLAAGVPSRFSGSGSGRDFTLTISSLQPEDFATYYCQNVLSEPLTFGQGTKVEIKRTVAAPSVFIFPPSDEQLKSGTASVVCLLNNFYPREAKVQWKVDNALQSGNSQESVTEQDSKDSTYSLSSTLTLSKADYEKHKVYACEVTHQGLSSPVTKSFNRGEC
B1 was tested, and the “EC50” value (h.cMet-ECD-His) was 6.142 ng/mL, the “cynoMet EC50” value [1] was 6.401 ng/mL and the “cross with rat cMet (binding)” value (Rat-cMet-hFc) was “do not bind”. The “MKN45 EC50” value (MKN45 cells [2]) was 49.55 ng/mL, the Maximum signal value (MKN45 cells [2]; MKN45) was 78639 and the Endocytosis rate % (MKN45 cells [3]; 1 h) was 18.4%. For the same molecule, the Endocytosis rate % (MKN45 cells [3]; 2 h) was 33.0% and the Endocytosis rate % (MKN45 cells [3]; 4 h) was 59.1%.
